The source of these data is patent publication US12624044B2, “SMARCA degraders and uses thereof” (Kymera Therapeutics, Inc., priority 2019, dated 2026).

By UniProt entry, the sequences of proteins in these tests, tags left out.
UniProt P51532, whole entry: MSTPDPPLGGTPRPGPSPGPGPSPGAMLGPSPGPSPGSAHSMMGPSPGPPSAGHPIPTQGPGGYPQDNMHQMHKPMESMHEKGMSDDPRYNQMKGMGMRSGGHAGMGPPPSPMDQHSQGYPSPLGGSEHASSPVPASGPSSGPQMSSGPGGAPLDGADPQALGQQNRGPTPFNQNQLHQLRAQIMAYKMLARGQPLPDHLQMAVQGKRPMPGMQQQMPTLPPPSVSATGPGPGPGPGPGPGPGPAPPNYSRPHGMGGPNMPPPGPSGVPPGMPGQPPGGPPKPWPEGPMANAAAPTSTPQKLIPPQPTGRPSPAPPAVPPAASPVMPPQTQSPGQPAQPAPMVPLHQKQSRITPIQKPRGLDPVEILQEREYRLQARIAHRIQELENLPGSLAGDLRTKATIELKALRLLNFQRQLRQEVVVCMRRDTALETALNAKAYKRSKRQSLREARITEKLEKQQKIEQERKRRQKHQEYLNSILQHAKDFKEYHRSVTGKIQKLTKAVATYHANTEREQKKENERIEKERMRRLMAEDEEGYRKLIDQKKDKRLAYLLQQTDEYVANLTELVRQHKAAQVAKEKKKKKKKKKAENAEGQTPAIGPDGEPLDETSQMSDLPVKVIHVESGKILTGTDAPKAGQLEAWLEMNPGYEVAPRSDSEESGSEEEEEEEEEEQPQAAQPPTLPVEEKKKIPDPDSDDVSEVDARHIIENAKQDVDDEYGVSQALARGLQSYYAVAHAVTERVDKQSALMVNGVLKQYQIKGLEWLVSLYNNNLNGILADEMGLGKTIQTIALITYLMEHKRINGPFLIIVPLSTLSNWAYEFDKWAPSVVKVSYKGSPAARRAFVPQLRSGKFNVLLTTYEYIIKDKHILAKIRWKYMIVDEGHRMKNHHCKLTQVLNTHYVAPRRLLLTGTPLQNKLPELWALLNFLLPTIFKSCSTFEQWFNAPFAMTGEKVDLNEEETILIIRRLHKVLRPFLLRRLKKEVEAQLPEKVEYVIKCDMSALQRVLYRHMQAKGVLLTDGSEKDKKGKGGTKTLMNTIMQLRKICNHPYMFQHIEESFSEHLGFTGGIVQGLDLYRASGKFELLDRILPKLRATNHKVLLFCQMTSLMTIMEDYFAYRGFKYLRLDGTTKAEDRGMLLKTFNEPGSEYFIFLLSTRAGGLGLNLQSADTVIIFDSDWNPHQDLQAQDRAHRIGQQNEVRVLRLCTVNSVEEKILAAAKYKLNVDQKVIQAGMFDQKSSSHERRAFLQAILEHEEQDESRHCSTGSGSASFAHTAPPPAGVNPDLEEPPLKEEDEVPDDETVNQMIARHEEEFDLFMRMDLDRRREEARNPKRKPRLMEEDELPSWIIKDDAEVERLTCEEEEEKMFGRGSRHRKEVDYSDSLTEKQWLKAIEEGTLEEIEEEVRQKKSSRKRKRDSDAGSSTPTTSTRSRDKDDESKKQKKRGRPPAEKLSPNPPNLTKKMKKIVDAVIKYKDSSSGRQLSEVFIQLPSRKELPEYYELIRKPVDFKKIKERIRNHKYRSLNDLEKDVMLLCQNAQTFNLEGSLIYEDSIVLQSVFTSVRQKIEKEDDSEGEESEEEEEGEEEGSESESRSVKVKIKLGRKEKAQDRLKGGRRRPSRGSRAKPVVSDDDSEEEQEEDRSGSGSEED
UniProt P51531, whole entry: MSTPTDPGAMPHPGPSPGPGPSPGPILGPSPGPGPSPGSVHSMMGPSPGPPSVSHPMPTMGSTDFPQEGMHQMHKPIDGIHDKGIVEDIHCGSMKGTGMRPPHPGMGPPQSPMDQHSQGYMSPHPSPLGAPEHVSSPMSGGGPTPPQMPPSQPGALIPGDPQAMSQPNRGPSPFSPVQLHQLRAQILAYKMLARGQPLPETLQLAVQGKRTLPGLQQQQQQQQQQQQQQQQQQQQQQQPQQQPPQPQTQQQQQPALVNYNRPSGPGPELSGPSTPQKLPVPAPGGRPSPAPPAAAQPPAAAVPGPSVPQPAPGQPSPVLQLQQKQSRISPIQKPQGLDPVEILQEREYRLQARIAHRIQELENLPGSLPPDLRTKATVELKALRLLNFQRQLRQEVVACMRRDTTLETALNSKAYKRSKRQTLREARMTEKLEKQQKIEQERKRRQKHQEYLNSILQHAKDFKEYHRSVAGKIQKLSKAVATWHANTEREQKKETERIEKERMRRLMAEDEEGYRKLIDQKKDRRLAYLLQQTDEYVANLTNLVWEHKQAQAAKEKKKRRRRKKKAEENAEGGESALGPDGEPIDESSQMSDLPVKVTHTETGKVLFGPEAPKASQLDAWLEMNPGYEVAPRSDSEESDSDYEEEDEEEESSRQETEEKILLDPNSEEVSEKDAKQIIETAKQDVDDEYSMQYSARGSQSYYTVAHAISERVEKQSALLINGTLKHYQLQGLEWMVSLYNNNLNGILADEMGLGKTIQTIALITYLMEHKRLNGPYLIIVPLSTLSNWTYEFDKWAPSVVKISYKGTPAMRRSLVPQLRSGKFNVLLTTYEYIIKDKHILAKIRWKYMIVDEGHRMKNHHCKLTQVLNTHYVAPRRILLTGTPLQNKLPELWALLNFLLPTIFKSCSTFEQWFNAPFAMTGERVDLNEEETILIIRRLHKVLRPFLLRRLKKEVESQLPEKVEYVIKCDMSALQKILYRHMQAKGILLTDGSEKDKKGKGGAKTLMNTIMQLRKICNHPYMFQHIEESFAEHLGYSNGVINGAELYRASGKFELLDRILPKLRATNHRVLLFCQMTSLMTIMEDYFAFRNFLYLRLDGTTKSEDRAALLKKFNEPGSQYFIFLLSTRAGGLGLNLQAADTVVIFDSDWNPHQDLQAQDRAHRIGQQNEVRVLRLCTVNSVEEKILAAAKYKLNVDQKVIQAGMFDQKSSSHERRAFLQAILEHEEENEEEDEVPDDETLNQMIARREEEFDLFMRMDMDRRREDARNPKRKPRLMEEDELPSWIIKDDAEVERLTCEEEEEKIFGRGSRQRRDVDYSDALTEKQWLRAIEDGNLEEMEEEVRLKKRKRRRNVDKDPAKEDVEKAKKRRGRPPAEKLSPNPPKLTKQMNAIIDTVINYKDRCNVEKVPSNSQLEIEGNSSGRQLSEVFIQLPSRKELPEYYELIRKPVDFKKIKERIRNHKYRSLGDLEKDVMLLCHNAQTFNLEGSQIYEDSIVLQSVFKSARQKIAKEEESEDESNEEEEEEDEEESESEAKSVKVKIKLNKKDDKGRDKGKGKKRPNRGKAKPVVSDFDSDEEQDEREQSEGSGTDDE

Test [1] addresses SMARCA4 (Homo sapiens, UniProt P51532). Nature of the test: SMARCA4 Western blot MV4-11 degradation. The following applies: for SMARCA4 WB MV411 degradation 24 h: Average Dmax %: MV4-11 cells; for DC50: read-out: SMARCA4 WB MV411 degradation 24 h: Average external-Abs DC50, MV4-11 cells. Here is the method:
Cells were seeded into 6-well plates (MV4-11: 4×10^6 cells/well/1 ml) and 1 ml of 2× compound solution was added into the well to make the final concentration and the plates were mixed well and incubated for 24 hours (No cytotoxicity was observed). The cell were collected with media and spun at 3000 rpm for 5 minutes. The supernatant was aspirated and the well and the cells were washed with cold PBS once and combined for centrifugation again; the supernatant aspirated again. 200 ul pre-chilled RIPAlysis buffer (Boston BioProducts BP-115D) with protease/phosphatase inhibitor (Roche 05892791001/Roche 04906837001) was directly added into the tube to lyze the cells for 20 minutes on ice. The cell lysate were collected into EP tubes and spun at 13000 rpm for 20 minutes and 72 ul supernatant was transferred to a fresh EP tube containing 18 ul of 5× loading buffer (Beyotime Bio P0015) to make the loading samples. The samples were heated to 100° C. for 10 minutes and cooled to RT and microcentrifuged. 20 ul of samples were loaded onto SDS-PAGE gel (Novex, WG1402BOX) and the gel was run at 80 V for 20 minutes and 120 V for 1.5 hours. The samples were electrotransfer to a NC membrane using wet-transfer method with 250 mA for 2.5 hours. The membrane was blocked with LICOR blocking buffer (LI-COR, 927-50000) for 1 hour. The membrane was washed three times with TBST (CST #9997S), 5 minutes each. Incubation was performed with primary antibody prepared in blocking buffer with 0.1% Tween-20 (Solarbio, P8220) at 4° C. overnight (Anti-SMARCA2/BRM antibody (ab15597) 1:500; Anti-BRG1 antibody [EPR3912] (ab108318) 1:1000; Rabbit anti-Baf180 antibody [EPR15860] (Abcam, ab196022) 1:1000; mouse anti-beta-Actin (8H10D10) (CST #3700) 1:10000). The membrane was washed three times with TBST, 5 minutes each. Incubation with secondary antibody was performed for 1 hour at RT (anti-rabbit IgG (Licor, 926-32211) 1:5000; anti-mouse IgG (LI-COR, 926-68070) 1:5000). The membrane was washed three times with TBST, 5 minutes each and lastly the LiCOR was read.
The letter codes for SMARCA degradation potency (DC50) include: A (<100 nM), B (100-500 nM), C (501-1000 nM), and D (>1000 nM). The letter codes for the percentage of SMARCA degradation after 24 hours (Dmax %) include: A (>90% degradation), B (>70-90% degradation), C (50-70% degradation), and D (<50% degradation).

The target of test [2] is T1, SMARCA2 (Homo sapiens, UniProt P51531). Nature of the test: MSD SMARCA2 degradation in NCI-H1299 cell line (24 h). As to conditions: for SMARCA2 MSD H1299 degradation 24 h: Dmax %: NCI-H1299 cells; for DC50: read-out: SMARCA2 MSD H1299 degradation 24 h: External Abs-DC50, NCI-H1299 cells. The protocol:
Example 32. MSD SMARCA2 Degradation in […] Cell Line
Cell Culture: Cells were cultured in exponential growth phase.
Compound Preparation and Treatment: NCI-H1299 cells were seeded into the 96-well plate at 4.0*10^4 cells per 100 ul per well. Incubate the plate in the incubator overnight. The next day, compounds were diluted to designed stock concentration by TECAN, then perform a 3 fold, 9-point dilution via transferring 15 uL compound into 30 μL DMSO using Apricot. 200 nL diluted compound from compound source plate were transferred into the 96-intermediate plate as designated by using Echo550, followed with 100 ul culture medium to make the 2× compound solution. Cell plate were changed with 80 ul of fresh culture medium and 80 ul of 2× compound solution was added into the well to achieve the final designed concentration. Cell plate was then shaken at 720 rpm for 5 min and incubated for 24 hours in the incubator.
Sample Preparation: Media was aspirated from the cultures and the plate was washed with PBS twice. 60 ul of pre-chilled PIPA lysis buffer (Boston BioProducts BP-115D) with protease inhibitor were directly added into the well to lyze the cells for 20 minutes at 4° C. Cell lysates were collected.
MSD Procedure: The MSD plate was coated with 40 ul cell lysate and incubated at 4° C. overnight. The next day, the MSD coated bare plate was washed 3 times with 150 ul 1×TBST per well, blocked with 150 ul of blocking buffer per well, and shaken for 1 hour at RT, 600 rpm. Blocking buffer was 3% Blocker A in TBST. MSD plate was then washed 3 times with 150 ul 1×TBST per well and Primary Detection antibody (Rabbit anti-SMARCA2/BRM antibody, 100 μg/ml, ab223735) was added to a final [conc.]: 0.3 ug/ml, 25 ul/well and shaken for 1 hour at RT, 600 rpm. Antibody was prepared in Antibody Detection buffer (1% Blocker A in 1×TBST). The MSD plate was then washed 3 times with 150 ul 1×TBST per well. Secondary Detection antibody (SULFO-TAG anti-species antibody) was then added to a final [conc.]: 1 ug/ml, 25 ul/well, and shaken for 1 hour at RT, 600 rpm. Antibodies were prepared in Antibody Detection buffer (1% Blocker A in 1×TBST). MSD plate was washed 3 times with 150 ul 1×TBST per well and 2×MSD reading buffer was added, 150 ul per well, and diluted from 4× with water. MSD instrument was then read.
Data Analysis: The percentage of relative level of SMARCA2 level was calculated following equation below.
LC: A2780, SMARCA2 negative cells. HC: NCI-H1299 cells treated with DMSO.
The letter codes for SMARCA2 degradation potency (DC50) include: A (<100 nM), B (100-500 nM), C (501-1000 nM), and D (>1000 nM). […]

The target of test [3] is T1, SMARCA2. Nature of the test: MSD SMARCA2 degradation in A549 cell line. As to conditions: for SMARCA2 MSD A549 degradation 24 h: Average Dmax %: A549 cells; for DC50: read-out: SMARCA2 MSD A549 degradation 24 h: Average external-Abs DC50, A549 cells. Here is the method:
Cells were seeded into 96-well plates (A549 cells: 2×10^4 cells/well/100 ul media) abd incubated overnight. The next day, 200 nl compound were added into the intermediate plate with Echo (Labcyte 550) from source plate containing a 3-fold serial dilution from top concentration of 1 mM. The culture medium was changed with 80 ul of fresh medium and 80 ul of 2× compound solution was added into the well to make a final concentration of 1000 nM, 333.3 nM, 111.1 nM, 37.04 nM, 12.35 nM, 4.115 nM, 1.372 nM, 0.457 nM, 0.152 nM and 0 nM (DMSO). The wells were mixed and then incubated for 24 hours. The media was aspirated from the cultures and 60 ul pre-chilled PIPA lysis buffer (Boston BioProducts BP-115D) with protease/phosphatase inhibitor (Roche 05892791001/Roche 04906837001) was added into the well to lyze the cells for 20 minutes at 4° C. The MSD plate (L15XA) was coated with 40 ul cell lysate and incubated at 4° C. overnight. The next day, the plate was washed three times with TBST (CST #9997S), 150 ul/well. The MSD plates was blocked with 150 ul blocking buffer per well and shaked for 1 hr at RT, 600 rpm. The blocking buffer was 3% Blocker A (MSD, R93BA-4) in TBST. The MSD plate was washed three times with 150 ul/well of TBST and 25 ul/well of detection antibody (Rabbit anti-SMARCA2/BRM antibody, 100 μg/ml, ab223735) was added at final concentration of 1 ug/ml diluted in 1% Blocking buffer and shaken for 1 hour at RT, 600 rpm. The MSD plate was washed three times with 150 ul/well of TBST and 25 ul/well of SULFO-TAG anti-rabbit antibody (MSD, R32AB-1) was added at final concentration of 1 ug/ml diluted in 1% Blocking buffer and shaken for 1 hour at RT, 600 rpm. The MSD plate was washed three times with 150 ul/well of TBST and 150 ul/well of 2×MSD reading buffer diluted from 4× (MSD, R92TC-2) with water was added. Lastly, the MSD instrument was read.
The letter codes for SMARCA2 degradation potency (DC50) include: A (<100 nM), B (100-500 nM), C (501-1000 nM), and D (>1000 nM). The letter codes for the percentage of SMARCA2 degradation after 24 hours (Dmax %) include: A (>90% degradation), B (>70-90% degradation), C (50-70% degradation), and D (<50% degradation).

In the case of `Cc1ncsc1-c1ccc(CNC(=O)[C@@H]2C[C@@H](O)CN2C(=O)[C@@H](NC(=O)CCCN2CCC[C@@H](Cn3cc(-c4cc(-c5ccccc5O)nnc4N)cn3)C2)C(C)(C)C)cc1`, in test [1], the “SMARCA4 WB MV411 degradation 24 h: Average Dmax %” value is on record as “D (D (<50% degradation))” and the DC50 lay in the range of 100 to 500 nM. In addition, in test [2], the “SMARCA2 MSD H1299 degradation 24 h: Dmax %” value was “D (D (<50% degradation))” and the half-maximal degradation concentration (DC50) lay in the range of 100 to 500 nM.

With `Cc1ncsc1-c1ccc(CNC(=O)[C@@H]2C[C@@H](O)CN2C(=O)[C@@H](NC(=O)CN2CCC[C@H](Cn3cc(-c4cc(-c5ccccc5O)nnc4N)cn3)C2)C(C)(C)C)cc1`, in test [3], the “SMARCA2 MSD A549 degradation 24 h: Average Dmax %” value was “D (D (<50% degradation))” and the DC50 was above 1000 nM.

As for `Cc1ncsc1-c1ccc(CNC(=O)[C@@H]2C[C@@H](O)CN2C(=O)[C@@H](NC(=O)CCCCN2CCCC(n3cc(-c4cc(-c5ccccc5O)nnc4N)cn3)C2)C(C)(C)C)cc1` (some centres unmarked), in test [1], the “SMARCA4 WB MV411 degradation 24 h: Average Dmax %” value is given as “D (D (<50% degradation))” and the half-maximal degradation concentration (DC50) was in the range of 100 to 500 nM. Also, in test [2], the “SMARCA2 MSD H1299 degradation 24 h: Dmax %” value is “D (D (<50% degradation))” and the DC50 fell in the range of 100 to 500 nM.

For the compound `Cc1ncsc1-c1ccc(CNC(=O)[C@@H]2C[C@@H](O)CN2C(=O)[C@@H](NC(=O)CCN2CCCC(n3cc(-c4cc(-c5ccccc5O)nnc4N)cn3)C2)C(C)(C)C)cc1` (some centres unmarked), in test [3], the “SMARCA2 MSD A549 degradation 24 h: Average Dmax %” value is listed as “D (D (<50% degradation))” and the 50% degradation concentration (DC50) is above 1000 nM.

`Cc1ncsc1-c1ccc(CNC(=O)[C@@H]2C[C@@H](O)CN2C(=O)[C@@H](NC(=O)CCCN2CCC[C@H](Cn3cc(-c4cc(-c5ccccc5O)nnc4N)cn3)C2)C(C)(C)C)cc1`: in test [3], the “SMARCA2 MSD A549 degradation 24 h: Average Dmax %” value is given as “D (D (<50% degradation))” and the DC50 was above 1000 nM.

On to `Cc1ncsc1-c1ccc(CNC(=O)[C@@H]2C[C@@H](O)CN2C(=O)[C@@H](NC(=O)C2CCC(CN(C)C(=O)c3cnc(N4C5CCC4CN(c4cc(-c6ccccc6O)nnc4N)C5)nc3)CC2)C(C)(C)C)cc1` (some centres unmarked), for which, in test [3], the “SMARCA2 MSD A549 degradation 24 h: Average Dmax %” value was “C (C (50-70% degradation))” and the half-maximal degradation concentration (DC50) lay within 501 to 1000 nM.

For the compound `Cc1ncsc1-c1ccc(CNC(=O)[C@@H]2C[C@@H](O)CN2C(=O)[C@@H](NC(=O)[C@H]2CC[C@@H](CN(C)Cc3cnc(N4C5CCC4CN(c4cc(-c6ccccc6O)nnc4N)C5)nc3)CC2)C(C)(C)C)cc1`, in test [1], the “SMARCA4 WB MV411 degradation 24 h: Average Dmax %” value is given as “C (C (50-70% degradation))” and the half-maximal degradation concentration (DC50) was above 1000 nM. Moreover, in test [3], the “SMARCA2 MSD A549 degradation 24 h: Average Dmax %” value is listed as “C (C (50-70% degradation))” and the DC50 was in the range of 501 to 1000 nM.
